From ChEMBL document CHEMBL1146051, “Novel inhibitors of hepatitis C NS3-NS4A serine protease derived from 2-aza-bicyclo[2.2.1]heptane-3-carboxylic acid” (Bioorg Med Chem Lett, 2006)

Assay: Selectivity for HNE over HCV NS3 protease

Ratio Ki(app): 420
SMILES: CN(C)C(=O)[C@@H](NC(=O)CNC(=O)C(=O)C(CC1CCC1)NC(=O)[C@@H]1C2CCC(C2)N1C(=O)[C@@H](NC(=O)NC(C)(C)C)C(C)(C)C)c1ccccc1 (stereo partly specified)
